From ChEMBL document CHEMBL1129857, “Synthesis, molecular modeling, and biology of the 1-benzyl derivative of APDC-an apparent mGluR6 selective ligand” (Bioorg Med Chem Lett, 1997)

Protein sequences, listed by entry. Tags and fused reporters are not part of them. Lines headed by an entry give the natural chain unless they say otherwise; changes in a name come on top.
UniProt P31421: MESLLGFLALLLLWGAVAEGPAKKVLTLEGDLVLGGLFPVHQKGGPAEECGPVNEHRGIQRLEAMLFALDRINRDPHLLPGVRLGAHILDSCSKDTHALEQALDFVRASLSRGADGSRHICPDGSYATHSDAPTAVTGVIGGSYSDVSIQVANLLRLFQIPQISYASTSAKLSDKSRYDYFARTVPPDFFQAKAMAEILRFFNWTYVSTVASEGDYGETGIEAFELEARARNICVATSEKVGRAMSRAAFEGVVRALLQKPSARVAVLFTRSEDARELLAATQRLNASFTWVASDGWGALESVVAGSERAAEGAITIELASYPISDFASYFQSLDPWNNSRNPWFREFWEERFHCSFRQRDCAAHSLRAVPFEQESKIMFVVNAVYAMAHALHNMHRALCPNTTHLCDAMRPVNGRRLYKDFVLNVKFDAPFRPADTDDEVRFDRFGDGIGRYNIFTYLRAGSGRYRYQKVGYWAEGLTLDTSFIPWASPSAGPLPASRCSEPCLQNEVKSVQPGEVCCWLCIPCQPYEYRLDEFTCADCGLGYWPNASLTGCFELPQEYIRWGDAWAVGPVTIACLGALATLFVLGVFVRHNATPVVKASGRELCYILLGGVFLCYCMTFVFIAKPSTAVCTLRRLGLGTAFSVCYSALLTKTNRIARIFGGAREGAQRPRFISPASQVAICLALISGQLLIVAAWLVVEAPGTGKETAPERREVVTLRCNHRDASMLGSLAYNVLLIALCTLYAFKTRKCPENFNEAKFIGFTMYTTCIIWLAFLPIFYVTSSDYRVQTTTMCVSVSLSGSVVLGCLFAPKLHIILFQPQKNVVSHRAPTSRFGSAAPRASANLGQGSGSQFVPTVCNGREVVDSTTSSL

Biological target: Metabotropic glutamate receptor 2 (Rattus norvegicus, UniProt P31421)
Experiment: Tested for the agonistic activity against Metabotropic glutamate receptor 2
Assay type: functional

pEC50: 7.46
SMILES: N[C@@]1(C(=O)O)CC[C@H]2[C@H](C(=O)O)[C@H]21 [EGLUMETAD]

pEC50: −log10 of the molar value.
